Measured values: publication PMC6980355 (Journal of medicinal chemistry, 2019)
Values after ≈ are worked out from the molar mass of the structure shown.

System: E. coli (wild type) DM4100
Assay: MIC by broth microdilution, E. coli wild type
Type: cell-based
Details: wild type DM4100, PMBN 8 μg/mL

Structure (SMILES)	MIC E. coli +PMBN
Nc1ncc2cc(-c3c(Cl)cccc3-c3cccnc3)c(N)nc2n1 [4d, 6-[2-chloro-6-(3-pyridyl)phenyl]pyrido[2,3-d]pyrimidine-2,7-diamine]	0.5 µg/mL (≈ 1.43 µM)
Nc1ncc2cc(-c3c(Cl)cccc3Cl)c(N3CCC(N)(CO)C3)nc2n1 (stereo not shown) [13c, [3-amino-1-[2-amino-6-(2,6-dichlorophenyl)pyrido[2,3-d]pyrimidin-7-yl]pyrrolidin-3-yl]methanol]	8 µg/mL (≈ 19.7 µM)
NCC1CCN(c2nc3nc(N)ncc3cc2-c2c(Cl)cccc2Cl)C1 (stereo not shown) [13f, 7-[3-(aminomethyl)pyrrolidin-1-yl]-6-(2,6-dichlorophenyl)pyrido[2,3-d]pyrimidin-2-amine]	2 µg/mL (≈ 5.14 µM)
NCC1CCN(c2nc3nc(N)ncc3cc2-c2c(Cl)cccc2Cl)CC1 [13g, 7-[4-(aminomethyl)-1-piperidyl]-6-(2,6-dichlorophenyl)pyrido[2,3-d]pyrimidin-2-amine]	4 µg/mL (≈ 9.92 µM)
